Assays:
[1] = system: Ba/F3 cells expressing FLT3-ITD-D835V
[2] = system: Ba/F3 cells expressing FLT3-ITD
[3] = molecular target: FLT3-ITD-F691L (Homo sapiens (Human), UniProt P36888, F691L/INS600HVDFREYEYD); assay: pFLT3 MSD assay, Ba/F3 FLT3-ITD-F691L; format: cell-based; conditions: Ba/F3 FLT3-ITD-F691L cells, 2 hours, read-out: BaF3-FLT3-ITD-F691L pFlt3 IC50
[4] = molecular target: FLT3-ITD-D835V (Homo sapiens (Human), UniProt P36888, D835V/INS600HVDFREYEYD); assay: pFLT3 MSD assay, Ba/F3 FLT3-ITD-D835V; format: cell-based; conditions: Ba/F3 FLT3-ITD-D835V cells, 2 hours, read-out: BaF3-FLT3-ITD-D835V pFlt3 IC50

Row | SMILES | IC50 [1] | IC50 [2] | IC50 [3] | IC50 [4]
1 | Nc1nc2ccccc2nc1-c1ccc(CC(=O)Nc2cc(C3(C(F)(F)F)CC3)on2)cc1 [Example 7, 2-(4-(3-aminoquinoxalin-2-yl)phenyl)-N-(5-(1-(trifluoromethyl)cyclopropyl)isoxazol-3-yl)acetamide] | > 50 nM |  |  | 
2 | Cn1ccc2ncc(-c3ccc(CC(=O)Nc4cc(C5(C(F)(F)F)CC5)on4)cc3)nc21 [Example 9, 2-(4-(5-methyl-5H-pyrrolo[2,3-b]pyrazin-3-yl)phenyl)-N-(5-(1-(trifluoromethyl)cyclopropyl)isoxazol-3-yl)acetamide] | 10 to 20 nM |  |  | 
3 | COc1cc2nc(-c3ccc(CC(=O)Nc4cc(C5(C(F)(F)F)CC5)on4)c(F)c3)cnc2cc1Br [Example 83, 2-(4-(6-bromo-7-methoxyquinoxalin-2-yl)-2-fluorophenyl)-N-(5-(1-(trifluoromethyl)cyclopropyl)isoxazol-3-yl)acetamide] | < 10 nM | < 10 nM |  | 
4 | COc1cc2nc(-c3ccc(CC(=O)Nc4cc(C5(C(F)(F)F)CC5)on4)c(F)c3)cnc2cc1CC(O)CO (stereo not shown) [Example 84, 2-(4-(6-(2,3-dihydroxypropyl)-7-methoxyquinoxalin-2-yl)-2-fluorophenyl)-N-(5-(1-(trifluoromethyl)cyclopropyl)isoxazol-3-yl)acetamide] | > 50 nM | < 10 nM |  | 
5 | COc1cc2nc(-c3ccc(CC(=O)Nc4cc(C5(C(F)(F)F)CC5)on4)c(F)c3)cnc2cc1NCCN1CCOCC1 [Example 85, 2-(2-fluoro-4-(7-methoxy-6-((2-morpholinoethyl)amino)quinoxalin-2-yl)phenyl)-N-(5-(1-(trifluoromethyl)cyclopropyl)isoxazol-3-yl)acetamide] | 10 to 20 nM | < 10 nM |  | 
6 | COc1cc2nc(-c3ccc(CC(=O)Nc4cc(C(C)(C)C)on4)c(F)c3)cnc2cc1OCCN1CCOCC1 [Example 92, N-(5-(tert-butyl)isoxazol-3-yl)-2-(2-fluoro-4-(7-methoxy-6-(2-morpholinoethoxy)quinoxalin-2-yl)phenyl)acetamide] | < 10 nM | < 10 nM |  | 
7 | COc1cc2nc(-c3ccc(CC(=O)Nc4cc(C(C)(C)C(F)(F)F)on4)cc3)cnc2cc1OCCN1CCOCC1 [Example 93, 2-(4-(7-methoxy-6-(2-morpholinoethoxy)quinoxalin-2-yl)phenyl)-N-(5-(1,1,1-trifluoro-2-methylpropan-2-yl)isoxazol-3-yl)acetamide] | < 10 nM | < 10 nM |  | 
8 | COc1cc2nc(-c3ccc(CC(=O)Nc4cc(C(C)(C)C(F)(F)F)nn4C)c(F)c3)cnc2cc1OCCN1CCOCC1 [Example 94, 2-(2-fluoro-4-(7-methoxy-6-(2-morpholinoethoxy)quinoxalin-2-yl)phenyl)-N-(1-methyl-3-(1,1,1-trifluoro-2-methylpropan-2-yl)-1H-pyrazol-5-yl)acetamide] | < 10 nM | < 10 nM |  | 
9 | O=C(Cc1ccc(-c2cnc3[nH]c(C(=O)N4CC(O)C4)cc3c2)cc1F)Nc1cc(C2(C(F)(F)F)CC2)on1 [Example 111, 2-[2-fluoro-4-[2-(3-hydroxyazetidine-1-carbonyl)-1H-pyrrolo[2,3-b]pyridin-5-yl]phenyl]-N-[5-[1-(trifluoro-methyl)cyclopropyl]isoxazol-3-yl]acetamide] |  | < 10 nM | < 10 nM | < 10 nM
10 | O=C(Cc1ccc(-c2cnc3[nH]c(C(=O)NC4CNC4)cc3c2)cc1F)Nc1cc(C2(C(F)(F)F)CC2)on1 [Example 112, N-(azetidin-3-yl)-5-[3-fluoro-4-[2-oxo-2-[[5-[1-(trifluoromethyl)cyclo-propyl]isoxazol-3-yl]amino]ethyl]phenyl]-1H-pyrrolo[2,3-b]pyridine-2-carboxamide] |  | < 10 nM | 20 to 50 nM | 20 to 50 nM
11 | CN1CC(NC(=O)c2cc3cc(-c4ccc(CC(=O)Nc5cc(C6(C(F)(F)F)CC6)on5)c(F)c4)cnc3[nH]2)C1 [Example 113, 5-[3-fluoro-4-[2-oxo-2-[[5-[1-(trifluoromethyl)cyclo-propyl]isoxazol-3-yl]amino]ethyl]phenyl]-N-(1-methylazetidin-3-yl)-1H-pyrrolo[2,3-b]pyridine-2-carboxamide] |  | < 10 nM | < 10 nM | < 10 nM
12 | COc1cc2ncc(-c3ccc(CC(=O)Nc4cc(C5(C(F)(F)F)CC5)nn4C)c(F)c3)nc2cc1OC [Example 172, 2-[4-(6,7-dimethoxyquinoxalin-2-yl)-2-fluoro-phenyl]-N-[2-methyl-5-[1-(trifluoro-methyl)cyclopropyl]pyrazol-3-yl]acetamide] | < 10 nM | < 10 nM |  | 
13 | COc1cc2ncc(-c3ccc(CC(=O)Nc4cc(C5(C(F)(F)F)CC5)nn4C(C)(C)C)c(F)c3)nc2cc1OC [Example 173, N-[2-tert-butyl-5-[1-(trifluoromethyl)cyclo-propyl]pyrazol-3-yl]-2-[4-(6,7-dimethoxy-quinoxalin-2-yl)-2-fluoro-phenyl]acetamide] | > 50 nM | < 10 nM |  | 
14 | COCCOc1cc2cc(-c3ccc(CC(=O)Nc4cc(C(C)(C)C(F)(F)F)on4)c(F)c3)cnc2cc1OC [Example 177, 2-[2-fluoro-4-[7-methoxy-6-(2-methoxyethoxy)-3-quinolyl]phenyl]-N-[5-(2,2,2-trifluoro-1,1-dimethyl-ethyl)isoxazol-3-yl]acetamide] | < 10 nM | < 10 nM |  | 
15 | COc1cc2ncc(-c3ccc(CC(=O)Nc4cc(C(C)(C)C(F)(F)F)on4)c(F)c3)cc2cc1OCCO [Example 178, 2-[2-fluoro-4-[6-(2-hydroxyethoxy)-7-methoxy-3-quinolyl]phenyl]-N-[5-(2,2,2-trifluoro-1,1-dimethyl-ethyl)isoxazol-3-yl]acetamide] | < 10 nM | < 10 nM |  | 
16 | COc1cc2ncc(-c3ccc(CC(=O)Nc4cc(C5(C(F)(F)F)CC5)on4)c(F)c3)cc2cc1OCCO [Example 179, 2-[2-fluoro-4-[6-(2-hydroxyethoxy)-7-methoxy-3-quinolyl]phenyl]-N-[5-[1-(trifluoromethyl)cyclo-propyl]isoxazol-3-yl]acetamide] | < 10 nM | < 10 nM |  | 
17 | COc1cc2nc(-c3ccc(CC(=O)Nc4cc(C(C)(C)C(F)(F)F)on4)c(F)c3)cnc2cc1OCC(C)(C)O [Example 246, 2-[2-fluoro-4-[6-(2-hydroxy-2-methyl-propoxy)-7-methoxy-quinoxalin-2-yl]phenyl]-N-[5-(2,2,2-trifluoro-1,1-dimethyl-ethyl)isoxazol-3-yl]acetamide] |  | < 10 nM |  | 

More lines, now with the values ahead:

Row | IC50 [1] | IC50 [2] | IC50 [3] | IC50 [4] | SMILES
18 | < 10 nM | < 10 nM |  |  | COc1cc2nc(-c3ccc(CC(=O)Nc4cc(C5(C(F)(F)F)CC5)on4)c(F)c3)cnc2cc1OCCN1CCN(C)CC1 [Example 81, 2-(2-fluoro-4-(7-methoxy-6-(2-(4-methylpiperazin-1-yl)ethoxy)quinoxalin-2-yl)phenyl)-N-(5-(1-(trifluoromethyl)cyclopropyl)isoxazol-3-yl)acetamide]
19 | < 10 nM | < 10 nM |  |  | COc1cc2nc(-c3ccc(CC(=O)Nc4cc(C5(C(F)(F)F)CC5)on4)c(F)c3)cnc2cc1OCCN1CCC(F)(F)C1 [Example 82, 2-(4-(6-(2-(3,3-difluoropyrrolidin-1-yl)ethoxy)-7-methoxyquinoxalin-2-yl)-2-fluorophenyl)-N-(5-(1-(trifluoromethyl)cyclopropyl)isoxazol-3-yl)acetamide]
20 | < 10 nM | < 10 nM |  |  | COc1cc2nc(-c3ccc(CC(=O)Nc4cc(C5(C(F)(F)F)CC5)on4)c(F)c3)cnc2cc1OCCN1CCOCC1(C)C [Example 96, 2-(4-(6-(2-(3,3-dimethylmorpholino)ethoxy)-7-methoxyquinoxalin-2-yl)-2-fluorophenyl)-N-(5-(1-(trifluoromethyl)cyclopropyl)isoxazol-3-yl)acetamide]
21 | < 10 nM | < 10 nM |  |  | CCN1CCN(CCOc2cc3ncc(-c4ccc(CC(=O)Nc5cc(C6(C(F)(F)F)CC6)on5)c(F)c4)nc3cc2OC)CC1 [Example 105, 2-[4-[6-[2-(4-ethylpiperazin-1-yl)ethoxy]-7-methoxy-quinoxalin-2-yl]-2-fluoro-phenyl]-N-[5-[1-(trifluoromethyl)cyclo-propyl]isoxazol-3-yl]acetamide]
22 | < 10 nM | < 10 nM |  |  | COc1cc2nc(-c3ccc(CC(=O)Nc4cc(C5(C(F)(F)F)CC5)on4)c(F)c3)cnc2cc1OCCN1CC(C)OC(C)C1 (stereo not shown) [Example 174, 2-[4-[6-[2-(2,6-dimethylmorpholin-4-yl)ethoxy]-7-methoxy-quinoxalin-2-yl]-2-fluoro-phenyl]-N-[5-[1-(trifluoro-methyl)cyclo-propyl]isoxazol-3-yl]acetamide]
23 | < 10 nM | < 10 nM |  |  | CNCCOc1cc2ncc(-c3ccc(CC(=O)Nc4cc(C5(C(F)(F)F)CC5)on4)c(F)c3)nc2cc1OC [Example 175, 2-[2-fluoro-4-[7-methoxy-6-[2-(methyl-amino)ethoxy]quinoxalin-2-yl]phenyl]-N-[5-[1-(trifluoro-methyl)cyclo-propyl]isoxazol-3-yl]acetamide]
24 | < 10 nM | < 10 nM |  |  | COc1cc2nc(-c3ccc(CC(=O)Nc4cc(C5(C(F)(F)F)CC5)on4)c(F)c3)cnc2cc1OCCN(C)C(C)=O [Example 176, 2-[4-[6-[2-[acetyl(methyl)amino]ethoxy]-7-methoxy-quinoxalin-2-yl]-2-fluoro-phenyl]-N-[5-[1-(trifluoromethyl)cyclo-propyl]isoxazol-3-yl]acetamide]
25 |  | < 10 nM |  |  | COc1cc2nc(-c3ccc(CC(=O)Nc4cc(C5(C(F)(F)F)CC5)on4)c(F)c3)cnc2cc1OCCN1CC2CCC(C1)O2 [Example 244, 2-[2-fluoro-4-[7-methoxy-6-[2-(8-oxa-3-azabicyclo[3.2.1]octan-3-yl)ethoxy]quinoxalin-2-yl]phenyl]-N-[5-[1-(trifluoromethyl)cyclo-propyl]isoxazol-3-yl]acetamide]
